# Test system: glycine receptor (GlyR)
# Experiment: Glycine-induced chloride current (IGly), whole-cell patch-clamp in isolated pyramidal neurons of the rat hippocampus
# Assay type: cell-based
# Description: All experiments were conducted per the requirements of the Ministry of Public Health of the Russian Federation and were consistent with the EU directive for Use of Experimental Animals of the European Community. […] The cells were isolated from transverse hippocampal slices as described in detail elsewhere ([Vorobjev, 1991]). Briefly, the slices (200–500 μm) of Wistar rats (11–14 days of age) hippocampus or cerebellum were incubated at room temperature for at least 2 h in a solution containing the following components (in mM): 124 NaCl, 3 KCl, 2 CaCl2, 2 MgSO4, 25 NaHCO3, 1.3 NaH2PO4, 10 D-glucose, pH 7.4. The saline was continuously stirred and bubbled with carbogen (95% 0_2 + 5% CO2). Single pyramidal neurons from the hippocampal CA3 area or Purkinje cells from sagittal slices of the cerebellum were isolated by a vibrating fused glass pipette with a spherical tip.
# Isolated neurons were patch clamped and then lifted into the outflow of the control bath solution. […] The substances were applied through glass capillary, 0.1 mm in diameter, which could be rapidly displaced laterally ([Vorobjev et al., 1996]). A fast perfusion technique allows a complete exchange of external solution surrounding a neuron within 20 ms. […] Transmembrane currents were recorded using a conventional patch-clamp technique in the whole-cell configuration. […] The solution in the recording pipette contained the following (in mM): 40 CsF, 100 CsCl, 0.5 CaCl2, 5 EGTA, 3 MgCl2, 4 NaATP, 5 HEPES, pH 7.3. […] Transmembrane currents were filtered at 3 kHz, stored and analyzed with IBM-PC computer, using homemade software.
# Statistical analysis was performed with the help of Prism Graphpad software. […] The IC50 values for steroids inhibition of the IGly and IGABA were determined using the equation: Y = 1 – [max/(1 + (IC50/C)^n)], where max is the maximum inhibition attainable, C is the concentration of steroid, IC50 is the half-maximal inhibitory concentration and n is the slope factor (Hill coefficient). […]
row,SMILES,Selectivity IGly vs. IGABA in words
1,"C[C@]12CCC(=O)C[C@H]1CC[C@@H]1[C@@H]2CC[C@]2(C)C(=O)CC[C@@H]12 [Compound 9, 5β-Androstane-3,17-dione]",selective modulators of IGly
2,"C[C@]12CCC(=O)C[C@@H]1CC[C@@H]1[C@@H]2CC[C@]2(C)C(=O)CC[C@@H]12 [Compound 6, 5α-Androstane-3,17-dione]",selective modulators of IGly
3,"C[C@]12CC[C@H]3[C@@H](CCC4=CC(=O)CC[C@@]43C)[C@@H]1CC[C@H]2O [Compound 5, 17α-Hydroxyandrost-4-en-3-one]",selective modulators of IGly

# From article PMC7098970, “Neurosteroids as Selective Inhibitors of Glycine Receptor Activity: Structure-Activity Relationship Study on Endogenous Androstanes and Androstenes” (Frontiers in Molecular Neuroscience, 2020)
